Experiment: ADME study: plasma PK of Compound 1 at steady state (LC-MS/MS)
Format: in vivo, human
Conditions: Day 5, 0-12 hours, mean of N = 6
Description: Six healthy male subjects of aged 18 to 55 years (inclusive) were included in this study.
All treatment administrations (Day 1 to Day 12) occurred approximately 30 minutes following consumption of a standardized meal. Treatments were administered with ˜240 mL water as 4×100 mg hard gelatin capsules.
Pharmacokinetic samples were obtained and evaluated in all subjects.
The PK parameters were based on the actual recorded sampling times and non-compartmental method(s) with Phoenix WinNonLin (Version 6.4). The terminal rate constant (λz) was determined from automated (WinNonlin algorithm) linear regression of at least the last three points with non-zero concentrations in the terminal phase of the log-transformed concentration-time profile.

COc1nc(C(=O)NC[C@](C)(O)C(F)(F)F)c(N)cc1C(F)(F)F [Compound 1, (S)-3-amino-6-methoxy-N-(3,3,3-trifluoro-2-hydroxy-2-methylpropyl)-5-(trifluoromethyl)picolinamide]
CL/F, plasma Compound 1: 56.8 L/h

— patent US11865109B2, “Formulations of (S)-3-amino-6-methoxy-N-(3,3,3-trifluoro-2-hydroxy-2-methylpropyl)-5-(trifluoromethyl)picolinamide” (NOVARTIS AG, priority 2019, dated 2024)
